Data from US9017735B2, “Modulation of KCNQ potassium channel activity for treatment of psychiatric disorders and the symptoms thereof” (Marquette University, priority 2009, dated 2015).

System: KCNQ potassium channels in prefrontal cortex
Assay: Forced delayed alternation task in a T-maze (working memory), acute PCP model, brain microinfusion
Format: in vivo, rats
Conditions: phencyclidine administration in laboratory rodents; no dose stated
Procedure: This experimental paradigm involves the working memory, a prefrontal cortex dependent task, and is used to examine attention and memory function. This study was conducted to determine the role of KCNQ channels in PFC in regulation of memory. […] N=16 rats per treatment. *p<0.05 vs. Sal/Sal; +p<0.05 vs. Sal/PCP.
Microinjection and Behavioral Experiments. Stainless Steel cannulae were implanted bilaterally 1 mm above nucleus accumbens or implanted in prefrontal cortex. Rats were permitted a minimum of 7 days recovery from surgery. Drugs were injected using an injection needle that extended 1 mm beyond the tip of the guide cannulae. The volume of injection was 1 μl for Linopirdine and XE991 and 0.5 μl for other drugs and was delivered over 1 minute. In experiments where two drugs were delivered into accumbens, the microinjections were separated by 15 minutes. Behavioral activity then was monitored as discussed in the Results.
Drugs. All drugs were purchased from commercial sources and dissolved in saline. Linopirdine, XE991, and DMP543 were initially dissolved in 100% DMSO and diluted to final concentration of 25% DMSO (Linopirdine) and 40% (XE991 and DMP543). All drug doses were nmol per side and were injected bilaterally into the specified brain region.

## O=C1N(c2ccccc2)c2ccccc2C1(Cc1ccncc1)Cc1ccncc1 [Linopirdine, 3,3-bis(4-pyridinylmethyl)-1-phenylindolin-2-one]
  effect on deficits in forced delayed alternation task performance in a T-maze produced by phencyclidine (summary statement): attenuate or fully reverse
